# Experimental data as given in PubChem BioAssay AID797 (University of Pittsburgh Molecular Library Screening Center, 2007).
# Sequences of proteins named here, by UniProt entry; tags and fusion partners are left off.
# UniProt Q15139, whole entry: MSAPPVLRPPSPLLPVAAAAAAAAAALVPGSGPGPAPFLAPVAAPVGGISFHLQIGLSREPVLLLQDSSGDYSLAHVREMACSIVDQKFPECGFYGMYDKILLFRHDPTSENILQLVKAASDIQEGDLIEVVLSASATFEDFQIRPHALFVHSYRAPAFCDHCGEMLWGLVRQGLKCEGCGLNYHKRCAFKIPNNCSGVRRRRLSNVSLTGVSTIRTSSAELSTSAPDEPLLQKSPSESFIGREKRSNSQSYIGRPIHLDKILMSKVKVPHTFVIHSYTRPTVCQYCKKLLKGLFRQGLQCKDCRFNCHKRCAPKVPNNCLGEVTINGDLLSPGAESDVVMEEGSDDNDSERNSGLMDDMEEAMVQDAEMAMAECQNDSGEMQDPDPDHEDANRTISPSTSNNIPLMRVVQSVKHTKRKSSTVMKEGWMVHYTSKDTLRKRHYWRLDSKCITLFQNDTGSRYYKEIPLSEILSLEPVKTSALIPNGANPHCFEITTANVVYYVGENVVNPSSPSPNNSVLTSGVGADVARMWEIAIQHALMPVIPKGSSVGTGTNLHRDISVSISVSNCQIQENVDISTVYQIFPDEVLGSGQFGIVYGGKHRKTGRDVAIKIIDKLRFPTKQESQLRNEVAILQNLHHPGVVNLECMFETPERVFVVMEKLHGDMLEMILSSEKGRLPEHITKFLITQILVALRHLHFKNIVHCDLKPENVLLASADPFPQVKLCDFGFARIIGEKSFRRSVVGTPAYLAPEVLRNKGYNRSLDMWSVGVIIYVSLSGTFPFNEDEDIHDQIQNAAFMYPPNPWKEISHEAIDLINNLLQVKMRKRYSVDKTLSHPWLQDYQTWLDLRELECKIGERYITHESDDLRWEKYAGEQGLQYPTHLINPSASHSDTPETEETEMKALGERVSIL
# This is a selection; strong and weak results do not stand in their true shares. The source made the active and inactive calls. Cut-off read from the data, not from the text of the source: active = inhibition above about 50%; inactive = the rest.
# Molecular target: Serine/threonine-protein kinase D1 (Homo sapiens) (UniProt Q15139)
# Experiment: protein kinase D1 activity blockers – biochemical, fluorescence polarization (AID 797)
# Conditions: PKD1 kinase fluorescence polarization assay; hits give high values; concentration not given here
row,Compound,inhibition
1,CC1CCC(C(C)C)C(OP(=O)(Nc2ccccn2)c2ccccc2)C1 (centres undefined),inactive: 7.36%
2,Cc1nn(-c2ccccc2)c2c1P(=O)(N1CCOCC1)N(C)C(c1ccccc1)=N2 (centres undefined),inactive: -1.06%
3,CN(C)C1(CNC(=O)c2ccc(S(C)(=O)=O)cc2)CCCCC1,inactive: -9.69%
4,CC(=O)NC(SC(=S)N(C)C)C(Cl)(Cl)Cl (centres undefined),inactive: -7.97%
5,O=[N+]([O-])c1cc([N+](=O)[O-])c(NCC2CCS(=O)(=O)C2)c([N+](=O)[O-])c1 (centres undefined),inactive: -3.68%
6,C(Cc1nn[nH]n1)Cc1nn[nH]n1,inactive: -13.6%
7,O=C(OC1CN2CCC1CC2)c1cccc(Cl)c1 (centres undefined),inactive: 6.35%
8,COc1ccc(OP(C)(=O)Nc2cccc(Br)c2)cc1 (centres undefined),inactive: 0.31%
9,O=P(Nc1ccccn1)(c1ccc(Br)cc1)c1ccc(Br)cc1,inactive: 2.51%
10,CN(C)CCOC(=O)C(O)(c1ccccc1)C1CCCCC1 (centres undefined),inactive: -1.99%
11,COc1ccc(NP(C)(=O)Oc2ccccc2OC)cc1 (centres undefined),inactive: -5.62%
12,CP(=O)(Nc1ccc2c(c1)OCCO2)Oc1ccccc1 (centres undefined),inactive: -6.05%
13,Cc1ccccc1NP(C)(=O)Nc1ccccc1C,inactive: 6.58%
14,CC(C)C(=O)NC(Sc1ccccc1)C(Cl)(Cl)Cl (centres undefined),inactive: -10.1%
15,O=P(Nc1nccs1)(c1ccccc1)c1ccccc1,inactive: -3.81%
16,CCOP(C)(=S)SCC(=O)NC(C)(CC)C(=O)O (centres undefined),inactive: -1.19%
17,c1nnnn1CCn1cnnn1,inactive: 15.7%
18,O=C(OCCN1CCN(CCOCc2ccccc2)CC1)C(O)(c1ccccc1)c1ccccc1,inactive: -3.05%
19,CC(=O)Nc1ccc(Oc2c([N+](=O)[O-])cc([N+](=O)[O-])cc2[N+](=O)[O-])cc1,inactive: -3.93%
20,CCOc1ccc(C2=NCC(CBr)S2)cc1 (centres undefined),inactive: -2.71%
21,O=P1(Nc2nc3ccc(Cl)cc3s2)COc2ccccc2O1 (centres undefined),inactive: -6.69%

row,Compound,inhibition
1,CP(=O)(Nc1ccccc1F)Oc1ccccc1 (centres undefined),inactive: 2.15%
2,CC(C)c1ccc(OP(C)(=O)Nc2ccc(SC(F)(F)F)cc2)cc1 (centres undefined),inactive: -5.35%
3,CC(C)(C)C(=O)NC(Sc1ccccc1)C(Cl)(Cl)Cl (centres undefined),inactive: -4.58%
4,Cc1ccc(OP(=O)(Nc2ccccn2)Oc2ccc(C)cc2)cc1,inactive: -8.66%
5,CC(=O)NC(SC(=S)N(CC(C)C)CC(C)C)C(Cl)(Cl)Cl (centres undefined),inactive: -4.15%
6,COC(=O)c1cc2c(s1)N=C(c1ccccc1)N(C)P2(=O)N1CCOCC1 (centres undefined),inactive: 2.58%
7,CCN(CC)CCCOC(=O)C(O)(c1ccccc1)C1CCCCC1 (centres undefined),inactive: 5.39%
8,CCC(=O)N1C2C3N(C(=O)CC)C1C1N(C(=O)CC)C(C(N1C(=O)CC)N3C(=O)CC)N2C(=O)CC,inactive: -11.9%
9,CP(=O)(Nc1ccccc1)Oc1ccc(F)cc1 (centres undefined),inactive: -5.24%
10,O=c1c2cc([N+](=O)[O-])ccc2[nH]c2c([N+](=O)[O-])cc([N+](=O)[O-])cc12,inactive: -1.14%
11,CCNC(=S)/N=C(\N)N[N+](=O)[O-],inactive: 1.54%
12,O=C(NC1CCS(=O)(=O)C1)NP(=S)(Oc1ccccc1)Oc1ccccc1 (centres undefined),inactive: 3.96%
13,CCOC(=O)NC(Sc1ccccc1)C(Cl)(Cl)Cl (centres undefined),inactive: -14.8%
14,c1ccc(-c2nn[nH]n2)c(-c2nn[nH]n2)c1,inactive: -0.5%
15,CCOC(=O)c1ccc(NP(C)(=O)Oc2ccc(F)cc2)cc1 (centres undefined),inactive: -10.3%
16,COc1ccc(OP(C)(=O)Nc2ccc(SC(F)(F)F)cc2)cc1 (centres undefined),inactive: -5.45%
17,Cc1nc2ccc3ccccc3c2o1.O=[N+]([O-])c1cc([N+](=O)[O-])c(O)c([N+](=O)[O-])c1,inactive: -17.6%
18,CCN(N=Nc1nonc1N)c1nonc1N,inactive: -0.42%
19,CP(=O)(Nc1ccc(Cl)cc1Cl)Oc1ccccc1 (centres undefined),inactive: -4.61%
20,CP(=O)(OCCOc1ccccc1)OCCOc1ccccc1,inactive: 0.13%
21,Cc1cc(C)cc(OP(C)(=O)Nc2cccc(C(F)(F)F)c2)c1 (centres undefined),inactive: -7.14%

row,Compound,inhibition
1,COc1ccccc1OP(C)(=O)Nc1ccc(C)c(C)c1 (centres undefined),inactive: -11.7%
2,Cc1cc(SC(NC(=O)c2ccc(F)cc2)C(Cl)(Cl)Cl)ncn1 (centres undefined),inactive: -1.36%
3,CCOP(=O)(Nc1ccccc1)OCC,inactive: -7.17%
4,COc1ccc(OP(C)(=O)Nc2ccccc2Br)cc1 (centres undefined),inactive: 14.5%
5,Cc1c(NP(C)(=O)Oc2ccc(C(C)C)cc2)c(=O)n(-c2ccccc2)n1C (centres undefined),inactive: -10.6%
6,CC(C)CC(=O)NC(Sc1ccc(Cl)cc1)C(Cl)(Cl)Cl (centres undefined),inactive: -5.65%
7,O=[N+]([O-])c1cc([N+](=O)[O-])c(Nc2ccccn2)c([N+](=O)[O-])c1,inactive: 0.3%
8,O=C(NC(Sc1ccncn1)C(Cl)(Cl)Cl)c1ccccc1 (centres undefined),inactive: -1.76%
9,Cc1c2non([O-])c-2c(C)[n+](=O)[n+]1[O-],inactive: -7.52%
10,Oc1ccccc1CNc1ccccn1,inactive: 4.58%
11,COc1ccccc1OP(C)(=O)Nc1ccc(C)cc1C (centres undefined),inactive: 6.46%
12,CP(=O)(Nc1ccccn1)Oc1ccccc1 (centres undefined),inactive: -11.9%
13,CCc1ccc(OP(C)(=O)O)cc1,inactive: -0.27%
14,NC(=O)c1cc([N+](=O)[O-])cc([N+](=O)[O-])c1N,inactive: -3.91%
15,Cc1ccc(N/C(=N/P(=O)(N2CCOCC2)N2CCOCC2)N2CCOCC2)cc1,inactive: 2.3%
16,COc1ccccc1OP(=O)(Nc1ccc(C)cn1)Oc1ccccc1OC,inactive: -3.23%
17,COc1ccc(OP(C)(=O)Nc2ccccn2)cc1 (centres undefined),inactive: -5.53%
18,CN1CCCC(OC(=O)C(c2ccccc2)c2ccccc2)C1 (centres undefined),inactive: -2.79%
19,Clc1ccc(Cl)c(NC2=NCC(CBr)S2)c1 (centres undefined),inactive: -8.85%
20,CN(C)CCOC(=O)C(O)(c1ccccc1)C1CCCC1 (centres undefined),inactive: -0.39%
21,COc1ccccc1OP(C)(=O)Nc1ccccc1Br (centres undefined),inactive: -4.11%

row,Compound,inhibition
1,CC(C)(C)c1ccc(OP(C)(=O)O)cc1,inactive: -3.3%
2,CP(=O)(Nc1ccc(Cl)cc1)Oc1ccc(F)cc1 (centres undefined),inactive: -0.00632%
3,CCN(/C(=N/P(=O)(N1CCOCC1)N1CCOCC1)N1CCOCC1)c1ccc(OC)cc1,inactive: -1.18%
4,CN(C)C(=O)OCCc1n(C)cc[n+]1C,inactive: -2.94%
5,CN(C)C(=O)c1c([N+](=O)[O-])cc([N+](=O)[O-])cc1[N+](=O)[O-],inactive: 1.22%
6,CC(C)=N/N=C(\N)N[N+](=O)[O-],inactive: 5.93%
7,CC1CCN(C(=O)Oc2c(Cl)cc(Cl)c3cccnc23)CC1,inactive: -4.21%
8,COc1ccc(OP(C)(=O)Nc2ccc(Br)cc2)cc1 (centres undefined),inactive: -2.24%
9,COc1ccc(C2=NCC(CBr)S2)cc1 (centres undefined),inactive: 1.84%
10,CCN(CC)CC(O)COC(=O)C(O)(c1ccccc1)C1CCCCC1 (centres undefined),inactive: -0.74%
11,O=[N+]([O-])c1cccc2n[nH]nc12,inactive: 4.89%
12,CC(=O)N1C2C3N(C(C)=O)C1C1N(C(C)=O)C(C(N1C(C)=O)N3C(C)=O)N2C(C)=O,inactive: 1.02%
13,COc1ccccc1OP(C)(=O)Nc1c(C)n(C)n(-c2ccccc2)c1=O (centres undefined),inactive: 2.01%
14,CCc1ccc(OP(C)(=O)Nc2cccnc2)cc1 (centres undefined),inactive: 3.32%
15,CCc1nc2c(n1)c1c(non1O)c1c2no[n+]1[O-],inactive: -1.77%
16,O=[N+]([O-])c1cc([N+](=O)[O-])c(CCNc2ccccc2)c([N+](=O)[O-])c1,inactive: 0.33%
17,CP(=O)(Oc1ccccc1)N1CCOC1=O (centres undefined),inactive: -1.06%
18,Cc1ccc(NP(=O)(Oc2ccccc2)Oc2ccccc2)nc1,inactive: -1.33%
19,O=[N+]([O-])c1ncn(CCn2ncnc2[N+](=O)[O-])n1,inactive: 0.25%
20,CCOC(=O)c1ccc(NP(C)(=O)Oc2ccc(Cl)cc2)cc1 (centres undefined),inactive: 0.19%
21,CP(=O)(OC12CC3CC(CC(C3)C1)C2)OC12CC3CC(CC(C3)C1)C2,inactive: -0.11%
